The source of these data is ChEMBL document CHEMBL4196220, “Synthesis and Discovery of Arylpiperidinylquinazolines: New Inhibitors of the Vesicular Monoamine Transporter” (J Med Chem, 2018).

In this experiment the target is Synaptic vesicular amine transporter (Homo sapiens, UniProt Q05940). The experiment can be described thus: Binding affinity to human VMAT2 expressed in HEK293 cell membranes in presence of 2 mM Mg-ATP by scintillation counting method. The essentials: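 Membranes from confluent HEK-293 cells stably expressing human VMAT2, prepared by osmotic shock and restored with Tris/K tartrate/MgSO4. About 50−75 μg protein per assay with [3H](+)-5b at 50−100 nM final. Incubated 60 min at 4 °C in the dark. Nonspecific binding taken with 10 μM O-7443. Filtration, then beta counting.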

Active and inactive are the calls of the source. No cut-off for these calls is given here.

Regarding `COc1cc2c(cc1OC)C1CC(O)C(CC(C)C)CN1CC2` (stereo unspecified), the outcome was Active.
